Ab-14 heavy chain CDR variants: yeast mating affinities

Data: MIT Lincoln Laboratory AlphaSeq set, Li et al. 2023, doi:10.1038/s41467-023-39022-2, as distributed in FLAb.

Target peptide (SARS-CoV-2 spike, HR2 region): PDVDLGDISGINAS

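The parent was found by panning a naive human phage display library on the peptide. The variants were designed computationally from a first round of random CDR variants and then made and measured. Several design methods are mixed in this list. AlphaSeq pools MATa yeast showing the antibodies with MATalpha yeast showing the peptide. Binding brings cells together so that they mate, and sequencing counts the barcode pairs among the diploids. The ratio of observed to expected reads was calibrated, replicate by replicate, on BCL2-family standards whose Kd was known from biolayer interferometry. Mating was done six times.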

Each scFv is VH, a (GGGGS)3 linker, VL, as in the parent Ab-14, and differs from it in the CDRs of the heavy chain only.
VH: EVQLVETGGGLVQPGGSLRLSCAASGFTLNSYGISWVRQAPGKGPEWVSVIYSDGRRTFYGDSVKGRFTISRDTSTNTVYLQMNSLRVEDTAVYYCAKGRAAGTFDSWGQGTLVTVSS
VL: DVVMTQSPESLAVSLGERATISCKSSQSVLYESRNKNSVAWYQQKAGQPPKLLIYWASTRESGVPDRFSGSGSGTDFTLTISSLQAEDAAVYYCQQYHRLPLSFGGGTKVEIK

Variants are written as CDR1, CDR2 and CDR3 of the heavy chain (limits as in the source). Parent: GFTLNSYGIS, VIYSDGRRTFYGDSVK, GRAAGTFDS.
The read-out is the apparent dissociation constant on a log10 scale (nM): the lower, the stronger.
The mean shown is taken over the replicates in which the pair was detected.
"ND" marks a missing value. The strain was present, yet no cells mated with the target were sequenced in that replicate, which points to weak or no binding.
Three control strains display no target. For all heavy chain designs, 1% of the pairings with them gave a signal, with a median of 2.08 and one signal in twenty below 0.84, so weak values seen in few replicates may be background. Also given: how often the same scFv was detected with the empty control strains, with their mean in brackets.
Of ten entries with the parent sequence, four were seen in most replicates (averages 0.34 to 2.37), three in one and three in none, so single entries are noisy.
The authors averaged sequences with at least three values out of six and counted those with two or fewer as poor binders.
Values of this round are not directly comparable with the first-round values of the same sequences.

| CDR-H1 | CDR-H2 | CDR-H3 | log10 Kd (nM) by replicate | mean, log10 nM | control signals |
|---|---|---|---|---|---|
| GRNLDEYGIS | VIYADGQRTSYIDNVK | GGDSVHLDM | ND / ND / ND / ND / ND / ND | ND | 0/18 |
| GFDLNEYGIS | VIYADGVRTFYADSVK | GQLAGTFDV | -0.42 / -0.90 / -0.45 / -0.44 / -0.81 / -0.56 | -0.60 | 0/18 |
| GFTLDSYGIS | VIYADGRRTFYGDSVK | GRAAGTFDV | -0.14 / -0.28 / -0.41 / -0.28 / 0.06 / -0.08 | -0.19 | 0/18 |
| GFSLNEYGIS | VIYSDGRRTFYTDSVK | GRFAGTFDN | 0.26 / 0.61 / 0.00 / -0.39 / 0.11 / 0.66 | 0.21 | 0/18 |
| GFNLNSYGIS | VIYSDGQRTFYGDSVK | GRAAGTFDS | ND / ND / 0.95 / 0.98 / 0.28 / 1.04 | 0.81 | 0/18 |
| GFGINSYGIS | VIYSDGRRTAYGDSVK | GRAMGTFEC | ND / ND / ND / 1.60 / ND / ND | 1.60 | 1/18 (0.65) |
| GFDLNEYGIS | VIYADGMRTYYADSVK | GGNAGTFDI | 0.60 / 0.06 / -0.08 / 0.44 / 0.15 / 0.27 | 0.24 | 1/18 (2.44) |
| GRNLDEYGIS | VIYADGQRTSYIDNVK | GGDSVDFDM | ND / ND / ND / ND / ND / ND | ND | 0/18 |
| GFTLDSYGIS | VIYADGRRTFYGDSVK | GRAAGTFTS | ND / ND / 2.68 / 2.30 / 3.07 / 4.24 | 3.07 | 0/18 |
| GFSLNEYGIS | VIYSDGRRTFYGDSVK | GRTAGTFIS | ND / 1.33 / ND / 1.65 / 1.19 / 2.16 | 1.58 | 0/18 |
| GFSLNSYGIS | VIYSDGRRTFYADSVK | GKEAGTFDS | -0.24 / -0.32 / -0.70 / 0.03 / -0.80 / -0.05 | -0.35 | 1/18 (1.72) |
| GFDLDEYGIS | VIYADGMRKAYSDSVK | GENAGTFDV | -0.44 / 0.06 / -0.65 / -1.10 / -0.23 / -0.40 | -0.46 | 0/18 |
| GFDLNEYGIS | VIYADGVRTAYSDSVK | GVNAGTFDV | -0.74 / -0.57 / -0.64 / -0.71 / -0.51 / -0.34 | -0.58 | 0/18 |
| GFVLNNYGIS | VIYADGRRTFYGDSVK | GRAAGTFDS | 0.66 / 0.39 / 0.43 / 0.35 / 0.51 / 0.70 | 0.51 | 1/18 (1.60) |
| GFSLNSYGIS | VIYSDGMRTFYGDSVK | GRTAGTFDS | 0.78 / 0.64 / 0.65 / 0.57 / 0.66 / 0.82 | 0.69 | 0/18 |
| GFQLNEYGIS | VIYSDGRRTFYGDSVK | GQTAGTFDS | 0.52 / -0.18 / 0.19 / 0.37 / 0.13 / 0.08 | 0.18 | 0/18 |
| GFDLNEYGIS | VIYADGVRTQYIDSVK | GEVAGTFDA | ND / 0.14 / 1.52 / -0.17 / 1.20 / ND | 0.67 | 0/18 |
| GFSLNEYGIS | VIYSDGRRTFYGDSVK | GRTAGTFMS | ND / ND / ND / ND / ND / ND | ND | 0/18 |
| GFTLNSYGIS | VIYSDGRRTFYGDSVK | GSEAGTFDL | -0.08 / 0.08 / 0.57 / 0.26 / 0.06 / 0.70 | 0.26 | 0/18 |
| GFTINSYGIS | VIYSDGRRTFYGDSVK | GRAAGSFDS | 1.05 / 2.11 / 0.48 / 1.24 / 1.45 / 0.88 | 1.20 | 0/18 |
| GFTLDSYGIS | VIYSDGRRTFYSDSVK | GQLAGTFDS | 0.17 / 0.37 / 0.21 / -0.03 / -0.43 / 0.37 | 0.11 | 0/18 |
| QFTLNSYGIF | VIYSDGRRTFYDDSVK | GQLAGTFDS | ND / ND / ND / ND / ND / ND | ND | 1/18 (3.47) |

Further variants, results first:

| log10 Kd (nM) by replicate | mean, log10 nM | control signals | CDR-H1 | CDR-H2 | CDR-H3 |
|---|---|---|---|---|---|
| ND / ND / ND / ND / ND / ND | ND | 2/18 (1.40) | GFDLTEYGIS | VIYADGRRVVYQDKVK | GELTGTFDQ |
| ND / ND / ND / ND / ND / ND | ND | 0/18 | GFDLEEYGIS | VIYADGYRTYAIDNVK | GEISGKGGT |
| ND / ND / ND / ND / ND / ND | ND | 0/18 | GFDLEEYGIS | VIYADGTRTMYLPTVK | GVNGGTFQM |
| ND / ND / ND / ND / ND / ND | ND | 0/18 | GFNLNKWGIS | VIYSDGRRTFYAISVK | GRAAGLFDS |
| ND / ND / ND / ND / ND / ND | ND | 0/18 | GFTLNSYGIS | VIYSDGRRTFYGDSVK | GRATGTFRL |
| ND / ND / ND / ND / ND / ND | ND | 0/18 | GCTLNSYGIS | VIYSDGRRTFYDDSVK | GQLAGTFDN |
| ND / 2.28 / ND / ND / 1.39 / 1.40 | 1.69 | 0/18 | KFTLMSYGIS | VIYSDGRRTFYGDSVK | GREAGTFDS |
| ND / ND / ND / ND / ND / ND | ND | 0/18 | GFTLNSYGIS | VIYSDGRRTFYEDSVK | LRAAGTFNS |
| ND / ND / ND / ND / ND / ND | ND | 0/18 | GNNLDEYGIS | VIYADGQRSAYAQDVK | GETGDNAFT |
| ND / ND / ND / ND / ND / ND | ND | 0/18 | GGNLDEYGIS | VIYADGKRRQYVDNVK | GSHADAFDM |
| 0.03 / 0.26 / 0.23 / 0.06 / 0.43 / 0.92 | 0.32 | 0/18 | GFGLMDYGIS | VIYADGKRRSYANSVK | GKHAGTFDF |
| ND / ND / ND / ND / ND / ND | ND | 0/18 | GFDLNEYGVS | VIYADGSRSAYTSSVK | GVHNLDIMI |
| -0.48 / -0.72 / -0.83 / -0.82 / -0.95 / -0.79 | -0.77 | 0/18 | GFDLNEYGIS | VIYADGRRTFYADSVK | GNNAGTFDL |
| -0.72 / -0.56 / -0.55 / -0.56 / -0.66 / -0.63 | -0.61 | 0/18 | GFDLNEYGIS | VIYADGMRTFYADSVK | GEVAGTFDS |
| ND / 2.09 / ND / 1.69 / ND / ND | 1.89 | 0/18 | GFELNSYGIS | VIYADGRRTFYGDRVK | GRAAGTFDV |
| -0.01 / -0.02 / -0.32 / -0.64 / -0.32 / -0.20 | -0.25 | 0/18 | GFDLNEYGIS | VIYADGVRTFYADSVK | GQNAGTFTL |
| -0.63 / -0.58 / -0.86 / -0.73 / -0.67 / -0.59 | -0.68 | 0/18 | GFDLNEYGIS | VIYADGMRTAYADNVK | GSVAGTFDV |
| 1.10 / 0.52 / 1.25 / 0.89 / 0.56 / 1.30 | 0.94 | 0/18 | GFDLDEYGIS | VIYADGMRTAYSDSVK | GETAGTFDM |
| 1.67 / 1.95 / ND / 1.55 / 1.97 / 2.45 | 1.92 | 0/18 | GFPLNSYGIS | VIYSDGRRTSYGDSVK | GRAAGTFDS |
| -0.86 / -1.25 / -0.92 / -1.42 / -1.06 / -1.41 | -1.15 | 0/18 | GFDLDEYGIS | VIYADGKRTYYADSVK | GENAGTFDI |
| -0.27 / 0.05 / -0.65 / -0.46 / -0.78 / 0.29 | -0.30 | 0/18 | GFDLNEYGIS | VIYADGVRKAYADSVK | GENAGTFDL |
| 1.69 / ND / ND / ND / ND / ND | 1.69 | 1/18 (1.96) | GFTLNSYGIS | VIYSDGRRTFYGDSVK | GRAAGTFWL |
| ND / ND / ND / 1.15 / ND / ND | 1.15 | 0/18 | GFTLNSYGIS | VIYSDGVRTAYGDSVK | GRAAGTFDS |

The 7 strongest on average among those seen in every replicate, once more:

| CDR-H1 | CDR-H2 | CDR-H3 | log10 Kd (nM) by replicate | mean, log10 nM | control signals |
|---|---|---|---|---|---|
| GFDLDEYGIS | VIYADGKRTYYADSVK | GENAGTFDI | -0.86 / -1.25 / -0.92 / -1.42 / -1.06 / -1.41 | -1.15 | 0/18 |
| GFDLNEYGIS | VIYADGRRTFYADSVK | GNNAGTFDL | -0.48 / -0.72 / -0.83 / -0.82 / -0.95 / -0.79 | -0.77 | 0/18 |
| GFDLNEYGIS | VIYADGMRTAYADNVK | GSVAGTFDV | -0.63 / -0.58 / -0.86 / -0.73 / -0.67 / -0.59 | -0.68 | 0/18 |
| GFDLNEYGIS | VIYADGMRTFYADSVK | GEVAGTFDS | -0.72 / -0.56 / -0.55 / -0.56 / -0.66 / -0.63 | -0.61 | 0/18 |
| GFDLNEYGIS | VIYADGVRTFYADSVK | GQLAGTFDV | -0.42 / -0.90 / -0.45 / -0.44 / -0.81 / -0.56 | -0.60 | 0/18 |
| GFDLNEYGIS | VIYADGVRTAYSDSVK | GVNAGTFDV | -0.74 / -0.57 / -0.64 / -0.71 / -0.51 / -0.34 | -0.58 | 0/18 |
| GFDLDEYGIS | VIYADGMRKAYSDSVK | GENAGTFDV | -0.44 / 0.06 / -0.65 / -1.10 / -0.23 / -0.40 | -0.46 | 0/18 |